{
  "source": "paper PMC3954981",
  "about": "(Bioorganic & medicinal chemistry, 2014)",
  "system": "PADs 1, 2, 3, and 4",
  "experiment": "Library screening, inhibition of the PADs described in words",
  "type": "biochemical, human",
  "details": "10 μM, PADs 1–4",
  "data": [
    {"smiles": "NC1=C(Br)C(=O)c2cccnc2C1=O", "note": "[Compound 21]", "values": [
      {"measurement": "inhibition of the PADs (in words)", "result": "strong inhibition"}
    ]}
  ]
}
